{"source": "patent US8318808B2", "about": "“Zn2+chelating motif-tethered short-chain fatty acids as a novel class of histone deacetylase inhibitors” (The Ohio State University Research Foundation, priority 2007, dated 2012)", "system": "primary CLL cells", "conditions": "N=6", "data": [{"molecule": "CC(C)C(C(=O)Nc1ccc(C(=O)NO)cc1)c1ccccc1", "note": "(stereo not shown) [compound 42, N-Hydroxy-4-(3-methyl-2-phenyl-butyrylamino)-benzamide]", "values": [{"measurement": "concentration at which significant cytotoxicity was observed", "result": "≥ 1000", "unit": "nM"}]}]}
